Source: US10463644B2, “Uses of sesquiterpene lactone compounds and their derivatives in drugs preparation” (ACCENDATECH, priority 2013, dated 2019)
Where two headings read alike, the source gives them in different places.

Assays:
[1] = test system: normal cells; test: Survival rate of normal cells after test compound is added (flow cytometry, Annexin V-FITC/PI); assay type: cell-based; conditions: 18 h
[2] = test system: cancer cells; test: Survival rate of cancer cells after test compound is added (flow cytometry, Annexin V-FITC/PI, clinical specimen); assay type: cell-based, patient; conditions: Homo sapiens, 18 h, read-out: Survival rate (%) All cells (Stem cells and ordinary cells)
[3] = test system: cancer stem cells; test: Survival rate of cancer stem cells after test compound is added (flow cytometry, Annexin V-FITC/PI, clinical specimen); assay type: cell-based, patient; conditions: Homo sapiens, 18 h
[4] = test system: IL-1β secreted by synoviocyte; test: Content of IL-1β in culture supernatant of synoviocyte of RA model rats given test compound; assay type: in vivo; conditions: rat RA model, dose 30 mg/kg.2d; normal control 0.16 ± 0.034, NaCl 0.49 ± 0.136
Text: (§1) Take Compound 1-50 prepared as per the method according to the present invention and employ the method provided in Reference to prepare model, group drugs and prepare culture supernatant of rat synoviocyte.
(§2) Employ the method provided in Reference to investigate the effects of the test compounds on the synoviocyte to secrete TNF-α and PGE2. Employ the method provided in Reference to investigate the effects of the test compounds on the synoviocyte to secrete IL-1β.
(§3) The experimental data of the test compound 1-50 at a dose of 30 mg/kg.2d as well as the normal control and NaCl group are as follows: […]

[5] = test system: PGE2 secreted by synoviocyte; test: Content of PGE2 in culture supernatant of synoviocyte of RA model rats given test compound; assay type: in vivo; conditions: rat RA model, dose 30 mg/kg.2d; normal control 8.34 ± 1.29, NaCl 32.44 ± 10.32
Text: as §1, §2, §3

[6] = test system: TNF-α secreted by synoviocyte; test: Content of TNF-α in culture supernatant of synoviocyte of RA model rats given test compound; assay type: in vivo; conditions: rat RA model, dose 30 mg/kg.2d; normal control 0.38 ± 0.027, NaCl 0.74 ± 0.098
Text: as §1, §2, §3

[7] = read-out: Survival rate (%) All cells (Stem cells and ordinary cells)
[8] = read-out: Survival rate (%) Stem cells
[9] = Head and neck squamous cell carcinomas

## C=C1C(=O)O[C@H]2[C@H]1CCC(C)=C1CC[C@@](C)(O)[C@@H]12 [Compound 1]
[1]; [7]
  viability at 10 µM: 91%
  viability at 20 µM: 93%
[1]; [8]
  viability at 10 µM: 88%
  viability at 20 µM: 91%
[2]; AML
  viability at 10 µM: 55%
  viability at 20 µM: 45%
[2]; Brain glioma
  viability at 10 µM: 69%
  viability at 20 µM: 47%
[2]; Brain tumor
  viability at 10 µM: 88%
  viability at 20 µM: 72%
[2]; Breast cancer
  viability at 10 µM: 69%
  viability at 20 µM: 55%
[2]; CLL
  viability at 10 µM: 55%
  viability at 20 µM: 46%
[2]; CML
  viability at 10 µM: 65%
  viability at 20 µM: 39%
[2]; Children hepatoblastoma
  viability at 10 µM: 54%
  viability at 20 µM: 37%
[2]; Colon adenocarcinoma
  viability at 10 µM: 56%
  viability at 20 µM: 39%
[2]; Colorectal cancer
  viability at 10 µM: 78%
  viability at 20 µM: 67%
[2]; Gastric cancer
  viability at 10 µM: 56%
  viability at 20 µM: 37%
[2]; Gastrointestinal tumor
  viability at 10 µM: 62%
  viability at 20 µM: 51%
[2]; Glioma
  viability at 10 µM: 87%
  viability at 20 µM: 72%
[2]; [9]
  viability at 10 µM: 67%
  viability at 20 µM: 48%
[2]; Laryngeal cancer
  viability at 10 µM: 75%
  viability at 20 µM: 64%
[2]; Liver cancer
  viability at 10 µM: 68%
  viability at 20 µM: 48%
[2]; Lung adenocarcinoma
  viability at 10 µM: 47%
  viability at 20 µM: 34%
[2]; Lung cancer
  viability at 10 µM: 53%
  viability at 20 µM: 26%
[2]; Malignant melanoma
  viability at 10 µM: 85%
  viability at 20 µM: 69%
[2]; Nasopharynx cancer
  viability at 10 µM: 34%
  viability at 20 µM: 28%
[2]; Ovarian cancer
  viability at 10 µM: 78%
  viability at 20 µM: 59%
[2]; Pancreatic cancer
  viability at 10 µM: 64%
  viability at 20 µM: 48%
[2]; Prostate cancer
  viability at 10 µM: 46%
  viability at 20 µM: 26%
[2]; Retinoblastoma
  viability at 10 µM: 64%
  viability at 20 µM: 54%
[2]; Skin cancer
  viability at 10 µM: 59%
  viability at 20 µM: 28%
[3]; AML
  viability at 10 µM: 34%
  viability at 20 µM: 24%
[3]; Brain glioma
  viability at 10 µM: 65%
  viability at 20 µM: 37%
[3]; Brain tumor
  viability at 10 µM: 78%
  viability at 20 µM: 69%
[3]; Breast cancer
  viability at 10 µM: 65%
  viability at 20 µM: 42%
[3]; CLL
  viability at 10 µM: 44%
  viability at 20 µM: 32%
[3]; CML
  viability at 10 µM: 55%
  viability at 20 µM: 26%
[3]; Children hepatoblastoma
  viability at 10 µM: 46%
  viability at 20 µM: 29%
[3]; Colon adenocarcinoma
  viability at 10 µM: 43%
  viability at 20 µM: 24%
[3]; Colorectal cancer
  viability at 10 µM: 65%
  viability at 20 µM: 45%
[3]; Gastric cancer
  viability at 10 µM: 45%
  viability at 20 µM: 27%
[3]; Gastrointestinal tumor
  viability at 10 µM: 56%
  viability at 20 µM: 41%
[3]; Glioma
  viability at 10 µM: 77%
  viability at 20 µM: 66%
[3]; [9]
  viability at 10 µM: 60%
  viability at 20 µM: 37%
[3]; Laryngeal cancer
  viability at 10 µM: 65%
  viability at 20 µM: 54%
[3]; Liver cancer
  viability at 10 µM: 55%
  viability at 20 µM: 36%
[3]; Lung adenocarcinoma
  viability at 10 µM: 36%
  viability at 20 µM: 24%
[3]; Lung cancer
  viability at 10 µM: 45%
  viability at 20 µM: 19%
[3]; Malignant melanoma
  viability at 10 µM: 72%
  viability at 20 µM: 56%
[3]; Nasopharynx cancer
  viability at 10 µM: 25%
  viability at 20 µM: 17%
[3]; Ovarian cancer
  viability at 10 µM: 67%
  viability at 20 µM: 45%
[3]; Pancreatic cancer
  viability at 10 µM: 54%
  viability at 20 µM: 36%
[3]; Prostate cancer
  viability at 10 µM: 34%
  viability at 20 µM: 21%
[3]; Retinoblastoma
  viability at 10 µM: 55%
  viability at 20 µM: 34%
[3]; Skin cancer
  viability at 10 µM: 57%
  viability at 20 µM: 23%
[4]
  Content of IL-1β in culture supernatant of synoviocyte (x ± s): 0.26 ± 0.042 ng/mL
[5]
  Content of PGE2 in culture supernatant of synoviocyte (x ± s): 15.24 ± 1.77 ng/mL
[6]
  Content of TNF-α in culture supernatant of synoviocyte (x ± s): 0.41 ± 0.076 ng/mL
